From ChEMBL document CHEMBL1124917 (1990) come the findings set out here.

In assay [1] the test system is P388. The assay is described as follows: Antitumor activity was determined after intraperitoneal injection on day 1 at a dose of 128 mg/kg following intraperitoneal implant of P388 leukemia cells in CDF1 mice.
Assay [2] deals with P388. The assay is described as follows: (§1) Average weight change of mice was determined on day 6 after intraperitoneal injection on day 1 at a dose of 256 mg/kg following intraperitoneal implant of P388 leukemia cells in CDF1 mice.
Assay [3] deals with P388. The assay is described as follows: Antitumor activity was determined after intraperitoneal injection on day 1 at a dose of 256 mg/kg following intraperitoneal implant of P388 leukemia cells in CDF1 mice.
Assay [4] deals with P388. The assay is described as follows: Average weight change of mice was determined on day 6 after intraperitoneal injection on day 1 at a dose of 128 mg/kg following intraperitoneal implant of P388 leukemia cells in CDF1 mice.
For assay [5], the system named is P388. The assay is described as follows: Antitumor activity was determined after intraperitoneal injection on day 1 at a dose of 64 mg/kg following intraperitoneal implant of P388 leukemia cells in CDF1 mice.
The nature of assay [6]: as §1.
For assay [7], the system named is P388. The experiment in a line: Antitumor activity was determined after intraperitoneal injection on day 1 at a dose of 32 mg/kg following intraperitoneal implant of P388 leukemia cells in CDF1 mice.
The subject of assay [8] is P388. The assay is described as follows: Average weight change of mice was determined on day 6 after intraperitoneal injection on day 1 at a dose of 32 mg/kg following intraperitoneal implant of P388 leukemia cells in CDF1 mice.
Assay [9] deals with P388. The assay is described as follows: Average weight change of mice was determined on day 6 after intraperitoneal injection on day 1 at a dose of 64 mg/kg following intraperitoneal implant of P388 leukemia cells in CDF1 mice.

One may read the T/C as the result in the treated group divided by that in the control group, in per cent. For `CC(=O)OC[C@H]1O[C@@H](n2ccc(NP(=O)(N3CC3(C)C)N3CC3(C)C)nc2=O)[C@H](OC(C)=O)[C@@H]1OC(C)=O` (stereo not given in full), the figures for the T/C with P388 [1] and in the assay on P388 [3] were 125% and 150%, respectively. Further, the AWC in the assay on P388 [2] is -1.6 g; with P388 [4] it was -0.7 g.

`CC1(C)CN1P(=O)(Nc1ccn([C@@H]2O[C@H](CO)[C@@H](O)[C@@H]2O)c(=O)n1)N1CC1(C)C` (stereo not given in full): the T/C in the assay with P388 [1] worked out at 122%; in the assay on P388 [3] it was 150%. In addition, the results for the AWC with P388 [2] and in the assay on P388 [4] were -1.7 g and -1 g, respectively.

Regarding `CC(=O)OC[C@H]1O[C@@H](n2ccc(NP(=O)(N3CC3(C)C)N3CC3(C)C)nc2=O)[C@@H](OC(C)=O)[C@@H]1OC(C)=O` (stereo not given in full), the T/C with P388 [5] is 150%; with P388 [1] it was 169%; in the assay with P388 [7], 150%; in the assay with P388 [3], 206%. Further, the AWC is -1 g in assay [6], -0.8 g with P388 [8], -0.4 g with P388 [4] and -0.8 g in the assay with P388 [9].

Consider `CC(=O)OC[C@H]1O[C@@H](n2ccc(NP(=O)(N3CC3(C)C)N3CC3(C)C)nc2=O)C[C@@H]1OC(C)=O` (stereo not given in full), for which the T/C was found to be 150% with P388 [5], 163% in the assay with P388 [1], 150% in the assay with P388 [7] and 188% in the assay with P388 [3]. In addition, the AWC in assay [6] is -1.8 g; with P388 [8], -0.8 g; with P388 [4], -1.1 g; with P388 [9] it was -1.3 g.

Compound `CC1(C)CN1P(=O)(Nc1ccn([C@@H]2O[C@H](CO)[C@@H](O)[C@H]2O)c(=O)n1)N1CC1(C)C` (stereo not given in full) registered an AWC in [6] of -1.1 g. Further, the T/C with P388 [3] turned out to be 122%.

With `CC1(C)CN1P(=O)(Nc1ccn([C@H]2C[C@H](O)[C@@H](CO)O2)c(=O)n1)N1CC1(C)C` (stereo not given in full), the T/C is 128% in the assay with P388 [1] and 150% with P388 [3]. Further, the AWC in assay [6] was -1.6 g; in the assay with P388 [4], -0.7 g.
